This is an account of results in US20140086975A1, “HYDROGEL FORMULATION FOR DERMAL AND OCULAR DELIVERY” (published 2014).

For the data set, the system named is NM exposed mouse skin. Kind of data set: Permeability of molecular markers through NM exposed skin, Franz diffusion cell.

For 3[H] mannitol, the Permeability coefficient reads like this: (24 h after NM exposure) 96.36 ± 13.68 (cm · h^−1) × 10^−6; (72 h after NM exposure) 1091 ± 216 (cm · h^−1) × 10^−6; (168 h after NM exposure) 157.7 ± 18.6 (cm · h^−1) × 10^−6; (Control (No NM exposure)) 27.45 ± 2.47 (cm · h^−1) × 10^−6.

Rhodamine 123: the Permeability coefficient is, setting by setting: (24 h after NM exposure) 889.7 ± 124.4 (cm · h^−1) × 10^−6; (72 h after NM exposure) 477.1 ± 14.14 (cm · h^−1) × 10^−6; (168 h after NM exposure) 692.2 ± 18.32 (cm · h^−1) × 10^−6; (Control (No NM exposure)) 161.5 ± 75.58 (cm · h^−1) × 10^−6.
